Counter-ions that a name gives are not always drawn.
target: system LAT1 transporter of the blood–brain barrier (Rattus norvegicus, UniProt Q63016); test: in situ rat brain perfusion: inhibition of L-[14C]-leucine uptake into rat brain; conditions: read-out: Ki for inhibition of the uptake of L-[14C]-leucine into rat brain via the blood–brain barrier, in vivo

Sequences of proteins named here, by UniProt entry; tags and fusion partners are left off. A change or cut given only in a name is not applied to a line headed by its entry.
UniProt Q63016: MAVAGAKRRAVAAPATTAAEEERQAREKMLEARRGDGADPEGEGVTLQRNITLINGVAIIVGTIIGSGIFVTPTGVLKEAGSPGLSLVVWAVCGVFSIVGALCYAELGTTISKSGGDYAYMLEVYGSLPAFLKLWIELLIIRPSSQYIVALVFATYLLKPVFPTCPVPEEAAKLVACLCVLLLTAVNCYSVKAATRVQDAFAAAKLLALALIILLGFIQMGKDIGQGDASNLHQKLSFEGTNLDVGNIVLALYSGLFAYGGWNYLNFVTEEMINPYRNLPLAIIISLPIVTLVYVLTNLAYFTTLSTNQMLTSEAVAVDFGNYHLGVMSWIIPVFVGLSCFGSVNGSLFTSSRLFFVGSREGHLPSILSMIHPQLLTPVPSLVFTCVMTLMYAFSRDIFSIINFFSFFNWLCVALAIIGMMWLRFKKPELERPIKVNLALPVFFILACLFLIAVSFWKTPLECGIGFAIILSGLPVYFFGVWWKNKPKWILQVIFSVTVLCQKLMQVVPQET

In order of falling Ki:
1. NC1(C(=O)O)CCc2cccc(N(CCCl)CCCl)c2C1 (racemic) [5d, (±)-2-amino-(bis-2-chloroethyl)-8-amino-1,2,3,4-tetrahydro-2-naphthoic acid dihydrochloride salt]  252 ± 44 µM
2. N[C@@H](Cc1ccc(N(CCCl)CCCl)cc1)C(=O)O [compound 2, Melphalan, reference compound]  55 ± 4 µM
3. NC1(C(=O)O)CC2CC1c1ccccc12 (racemic) [(±)-2-Aminobenzo-bicyclo-[2.2.1]heptane-2′-exo-carboxylic acid]  26 ± 1 µM
4. NC1(C(=O)O)Cc2ccccc2C1 [(±)-2-Aminoindane-2 carboxylic acid]  12.5 ± 1.1 µM
